# Source: patent US20190209472A1, “FORMULATIONS FOR DERMAL DELIVERY OF POLYMER CONJUGATES OF INDOLOCARBAZOLE COMPOUNDS WITH REDUCED EXPOSURE” (Sienna Biopharmaceuticals, Inc., priority 2017, published 2019)
# Read-outs that look alike come from different tables or passages of the source.
# Legend:
# [1] = test system: subjects with pruritus associated with psoriasis vulgaris; assay: Phase 2b study: safety and tolerability; set-up: species or system human; conditions: in vivo
# Description: The study subjects (mild-to-moderate psoriasis patients with at least moderate pruritus (itch)) consisted of 208 adult subjects that were ≥18 years of age, randomized 1:1:1 to SNA-120 0.05%, SNA-120 0.5% and vehicle (see Table 1). Subjects self-administered the assigned study drug (SNA-120 ointment or vehicle; the vehicle formulation was the same as the SNA-120 formulation without the active) to the indicated areas twice-daily over 12 weeks. The ointment contains SNA-120 (pegcantratinib [active ingredient]), butylated hydroxytoluene, benzyl alcohol, propylene glycol, white soft paraffin (white petrolatum), white wax, stearyl alcohol, and cholesterol (see Table 1). Assessments were performed to determine the treatment effect on pruritus, as well as the underlying visible plaque psoriasis, and safety and local tolerability of SNA-120. Pruritus was assessed by the subject-administered I-NRS and recorded on their daily diaries. Plaque psoriasis was assessed by the investigator by Investigator Global Assessment (IGA) and Psoriasis Area Severity Index (PAST). At baseline, subjects were required to have a weekly mean I-NRS score of at least 5 on the 11 point I-NRS scale, and mild to moderate plaque psoriasis (IGA 2 or 3).
# [2] = not given; remark: listed apart in the source
# [3] = test system: patients with stable psoriasis vulgaris; assay: Phase I study: safety and tolerability (TEAEs, laboratory, vital signs, ECG); conditions: in vivo
# [4] = Phase I study: CT327 and CT327 amide in human plasma by HPLC-FLD; type: in vivo; conditions: 1 g of 0.5% w/w CT327 ointment bid, individual subjects
# Procedure: Sixteen patients were enrolled in 2 treatment groups.
# The analytical procedure involved extraction of CT327 and CT327 amide from human plasma by a liquid-liquid extraction. The human plasma samples were analyzed using a validated HPLC method with fluorescence detection (FLD). […] Concentrations of the calibration curve standards, quality control samples and study samples were determined by the method of (1/x^2) weighted least squares linear regression.
# A total of 240 human plasma samples were analyzed. […] A further 80 samples were received from subjects who had been dosed with placebo; these were not analyzed. All samples were stored at −80° C. (±10° C.).
# The extraction procedure involved a liquid-liquid extraction. A portion of the extract was injected onto the HPLC-FLD system.
# For calibration curve generation, duplicate calibrators at seven different concentrations, a human plasma blank and a human plasma blank plus internal standard were prepared for each batch. The calibration curves were produced by plotting the analyte to internal standard peak area ratios (y-axis) versus the concentration. The gradient and the intercept were determined by (1/x^2) weighted least squares linear regression.
# Calculated concentration of analyte=((PAR-C)/M), where: PAR=analyte to internal standard peak area ratio; C=intercept; and M=gradient.
# [5] = test system: patients with stable psoriasis vulgaris; conditions: CT327 treatment group
substance,measurement,setting,value
"(9S, 10R, 12R)-10-(3′-mPEG2000-1′,3′-oxazolidine-2′,4′-dione)-2,3,9,10,11,12-hexahydro-9-methyl-1-oxo-9,12-epoxy-1H-diindolo[1,2,3-fg:3′,2′,1′-k,l]pyrrolo[3,4-i][1,6] benzodiazocine] [CT327]",Serious treatment-related adverse events,[1],no serious treatment-related adverse events
same,Tolerability,[1],well-tolerated
same,Stability to light,exposure to artificial daylight fluorescent lamp,causes degradation
same,Stability to pH,neutral and alkaline pH,causes degradation
same,Aqueous stability,previously acquired stability data,poor aqueous stability
same,Stability to temperature,room temperature to 40° C. to 60° C.,progressive increase in degradation rate
same,"Solubility of CT327 in single solvents, Comments",[2]; Benzyl alcohol,Excellent solubility
same,"Solubility of CT327 in single solvents, Comments",[2]; Benzyl benzoate,Excellent solubility
same,"Solubility of CT327 in single solvents, Results % w/w",[2]; Caprylic/capric triglycerides,<0.5% w/w
same,"Solubility of CT327 in single solvents, Results % w/w",[2]; Cyclomethicone,<0.5% w/w
same,"Solubility of CT327 in single solvents, Results % w/w",[2]; Diethyl sebacate,<0.5% w/w
same,"Solubility of CT327 in single solvents, Results % w/w",[2]; Diisopropyl adipate,<0.5% w/w
same,"Solubility of CT327 in single solvents, Results % w/w",[2]; Dimethyl isosorbide,≥5% w/w
same,"Solubility of CT327 in single solvents, Comments",[2]; Ethanol (190 proof),Excellent solubility
same,"Solubility of CT327 in single solvents, Results % w/w",[2]; Hexylene glycol,<0.5% w/w
same,"Solubility of CT327 in single solvents, Results % w/w",[2]; Isopropyl myristate,<0.5% w/w
same,"Solubility of CT327 in single solvents, Results % w/w",[2]; Isostearic acid,<0.5% w/w
same,"Solubility of CT327 in single solvents, Results % w/w",[2]; Isostearyl alcohol,<0.5% w/w
same,"Solubility of CT327 in single solvents, Comments",[2]; Lactic acid,Excellent solubility
same,"Solubility of CT327 in single solvents, Results % w/w",[2]; Lactic acid,≥10% w/w
same,"Solubility of CT327 in single solvents, Results % w/w",[2]; Myristyl lactate,<0.5% w/w
same,"Solubility of CT327 in single solvents, Results % w/w",[2]; N-Methyl pyrrolidone,≥10% w/w
same,"Solubility of CT327 in single solvents, Results % w/w",[2]; Octyldodecanol,<0.5% w/w
same,"Solubility of CT327 in single solvents, Results % w/w",[2]; Oleyl alcohol,<0.5% w/w
same,"Solubility of CT327 in single solvents, Results % w/w",[2]; PEG 400,~0.5% w/w
same,"Solubility of CT327 in single solvents, Results % w/w",[2]; Propylene glycol,~1% w/w
same,"Solubility of CT327 in single solvents, Results % w/w",[2]; Transcutol,≥2% w/w
same,Solubility,"[2]; in ethanol, benzyl alcohol and water",Extremely soluble
same,AEs at the treatment application sites,[3],No AEs
same,"Clinical laboratory test results, vital signs, ECGs or physical examinations",[3],no clinically significant findings
same,"Deaths, SAEs or withdrawals due to TEAEs",[3],"No deaths, SAEs or withdrawals due to TEAEs"
same,Severe TEAEs,[3],No severe TEAEs
same,Tolerability of study treatment,[3],well tolerated
same,CT327 Concentration (ngml^−1),[4]; Day 1 0.5 h,"NQ (concentrations below the LLOQ, and thus were reported as non-quantifiable (NQ))"
same,CT327 Concentration (ngml^−1),[4]; Day 1 1 h,"NQ (concentrations below the LLOQ, and thus were reported as non-quantifiable (NQ))"
same,CT327 Concentration (ngml^−1),[4]; Day 1 2 h,"NQ (concentrations below the LLOQ, and thus were reported as non-quantifiable (NQ))"
same,CT327 Concentration (ngml^−1),[4]; Day 1 4 h,"NQ (concentrations below the LLOQ, and thus were reported as non-quantifiable (NQ))"
same,CT327 Concentration (ngml^−1),[4]; Day 1 12 h,"NQ (concentrations below the LLOQ, and thus were reported as non-quantifiable (NQ))"
same,CT327 Concentration (ngml^−1),[4]; Day 1 predose,"NQ (concentrations below the LLOQ, and thus were reported as non-quantifiable (NQ))"
same,CT327 Concentration (ngml^−1),[4]; Day 3 0.5 h,"NQ (concentrations below the LLOQ, and thus were reported as non-quantifiable (NQ))"
same,CT327 Concentration (ngml^−1),[4]; Day 3 1 h,"NQ (concentrations below the LLOQ, and thus were reported as non-quantifiable (NQ))"
same,CT327 Concentration (ngml^−1),[4]; Day 3 2 h,"NQ (concentrations below the LLOQ, and thus were reported as non-quantifiable (NQ))"
same,CT327 Concentration (ngml^−1),[4]; Day 3 4 h,"NQ (concentrations below the LLOQ, and thus were reported as non-quantifiable (NQ))"
same,CT327 Concentration (ngml^−1),[4]; Day 3 12 h,"NQ (concentrations below the LLOQ, and thus were reported as non-quantifiable (NQ))"
same,CT327 Concentration (ngml^−1),[4]; Day 3 predose,"NQ (concentrations below the LLOQ, and thus were reported as non-quantifiable (NQ))"
same,CT327 Concentration (ngml^−1),[4]; Day 7 0.5 h,"NQ (concentrations below the LLOQ, and thus were reported as non-quantifiable (NQ))"
same,CT327 Concentration (ngml^−1),[4]; Day 7 1 h,"NQ (concentrations below the LLOQ, and thus were reported as non-quantifiable (NQ))"
same,CT327 Concentration (ngml^−1),[4]; Day 7 2 h,"NQ (concentrations below the LLOQ, and thus were reported as non-quantifiable (NQ))"
same,CT327 Concentration (ngml^−1),[4]; Day 7 4 h,"NQ (concentrations below the LLOQ, and thus were reported as non-quantifiable (NQ))"
same,CT327 Concentration (ngml^−1),[4]; Day 7 8 h,"NQ (concentrations below the LLOQ, and thus were reported as non-quantifiable (NQ))"
same,CT327 Concentration (ngml^−1),[4]; Day 7 12 h,"NQ (concentrations below the LLOQ, and thus were reported as non-quantifiable (NQ))"
same,CT327 Concentration (ngml^−1),[4]; Day 7 24 h,"NQ (concentrations below the LLOQ, and thus were reported as non-quantifiable (NQ))"
same,CT327 Concentration (ngml^−1),[4]; Day 7 predose,"NQ (concentrations below the LLOQ, and thus were reported as non-quantifiable (NQ))"
same,Occurrences of headache (TEAE),[5],5
same,Patients reporting headache (TEAE),[5],25%
same,Patients reporting psoriasis as a TEAE,[5],16.7%
same,TEAEs of mild maximum intensity,[5],8
same,TEAEs of moderate maximum intensity,[5],2
same,Number of TEAEs,[5]; n=12,10
same,Patients reporting TEAEs,[5]; n=12,50%
same,"Mild TEAE, number of events [m]",[5]; topical ointment bid,8
same,"Mild TEAE, number of patients experiencing the event",[5]; topical ointment bid,5
same,"Mild TEAE, percentage of patients with the event",[5]; topical ointment bid,41.7%
same,"Moderate TEAE, number of events [m]",[5]; topical ointment bid,2
same,"Moderate TEAE, number of patients experiencing the event",[5]; topical ointment bid,2
same,"Moderate TEAE, percentage of patients with the event",[5]; topical ointment bid,16.7%
same,"Related TEAE, number of events [m]",[5]; topical ointment bid,1
same,"Related TEAE, number of patients experiencing the event",[5]; topical ointment bid,1
same,"Related TEAE, percentage of patients with the event",[5]; topical ointment bid,8.3%
same,"SAE, number of patients experiencing the event",[5]; topical ointment bid,0
same,"Severe TEAE, number of patients experiencing the event",[5]; topical ointment bid,0
same,"TEAE leading to discontinuation, number of patients experiencing the event",[5]; topical ointment bid,0
same,"TEAE, number of events [m]",[5]; topical ointment bid,10
same,"TEAE, number of patients experiencing the event",[5]; topical ointment bid,6
same,"TEAE, percentage of patients with the event",[5]; topical ointment bid,50.0%
